Patent US20100280040A1 (KAOHSIUNG MEDICAL UNIVERSITY, priority 2009, published 2010)

Assay: Solubility test

Cn1c(=O)c2c(ncn2CCN2CCN(c3ccccc3Cl)CC2)n(C)c1=O [MSC]
pH (dissolved in 1.2 ml Propylene glycol and 0.6 ml 1N HCl): 4.2-4.8
pH (dissolved in Anhydrous EtOH:PEG 400:1N HCl:H2O = 10:10:3:77 (v/v)): 4.2-4.8

Cl.Cn1c(=O)c2c(ncn2CCN2CCN(c3ccccc3Cl)CC2)n(C)c1=O [Pulmodil, 7-[2-[4-(2-chlorobenzene)piperazinyl]ethyl]-1,3-dimethylxanthine.HCl]
pH (dissolved in 5% Glucose): 5.8-6.4

Cn1c(=O)c2c(ncn2CCN2CCN(c3ccccc3Cl)CC2)n(C)c1=O.O=C(O)CC(O)(CC(=O)O)C(=O)O [Pulmodil-1, 7-[2-[4-(2-chlorobenzene)piperazinyl]ethyl]-1,3-dimethylxanthine.citric acid]
pH (dissolved in Anhydrous EtOH:PEG 400:H2O = 5:30:65 (v/v)): 4.5-4.8
